Measured values as given in patent US8969612B2, “Low interfacial tension surfactants for petroleum applications” (Soane Energy, LLC, priority 2009, dated 2015).

Experiment: Interfacial tension, Du Nouys ring tensiometer (Example 14), interface with toluene
Assay type: physicochemical
Conditions: 1% by weight solution, neutral pH (5 M NaOH)
Description: Surfactant molecules were tested for their ability to decrease the surface tension across the aqueous-organic interface.

With “2-(nonen-1-yl)succinic acid mono (2-cyclohexylethyl) ester [Example 3]” the “IFT w/Toluene” value was <0.01 b mN/m.
